An excerpt weighted towards active compounds, which were near 2.8% of everything screened.
MITF TRPM1 HTS: activators of MITF-driven TRPM1 promoter reporter, primary screen, cell-based, SK-MEL-5, luciferase, single point; SK-MEL-5 TRPM1-promoter luciferase, 24 h; % of positive control, neutral wells = 0; activation, % at 12.5 µM; actives 0.75% (n = 300,000); AID 588334, 2011;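 active = mean activation of at least 80% with every replicate also reaching 80%; inconclusive = mean reaches 80% but some replicate falls short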;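 also: 0% = neutral control wells and 100% = parthenolide positive control wells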
Wnt act: Wnt/beta-catenin pathway activators, primary screen, cell-based, plate reader, single point; actives 1.2% (n = 300,000); activation, % at 9.35 µM; Wnt/beta-catenin reporter cell assay, activator; in the data active = activation above about 30%, passing the limit was not always enough; inconclusive = no clear call, values can overlap the other calls;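 also: 0% = neutral control wells and 100% = positive control wells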
UUG fidelity: alters start codon recognition fidelity in yeast | S. cerevisiae UUG-firefly luciferase reporter, luminescence/redox ratio | activity score, % at 18.7 µM | 350,000 compounds, 0.13% hits | AID 602363;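 active = replicate mean at a twofold rise or more, about +100% in these data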;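 note: firefly luciferase made from a UUG start codon reports start codon fidelity; reporter light over untreated wells divided by growth signal over untreated wells; some hits fall short of that in this replicate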
miR-122 sensor: miR-122 Renilla sensor signal increase in Huh7, primary screen, miR-122 inhibitor project, cell-based, single point, plate reader. Huh7 miR-122 Renilla luciferase sensor, 48 h; neutral wells = 0, positive control = 100. activation (reporter increase), % at 12.5 µM. actives 0.3% (n = 340,000). AID 602342, 2012;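 active = mean replicate activation score at least 90 and every replicate individually at or above 90; inconclusive = only one of the two criteria met; inactive = neither criterion met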;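 also: higher luciferase means less miR-122 activity so hits act as miR-122 inhibitors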
esBAF inh: Bmi1 luciferase reporter increase in mESCs, primary screen, esBAF inhibitor project, mouse ES cells, Bmi1 luciferase knock-in, single point; 24 h; 100% = twice the neutral-well signal; reporter increase, % at 12.5 µM; actives 2% (n = 350,000); AID 602393, 2012; in the data active = activation above about 40%; inconclusive = no clear call, values can overlap the other calls;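 also: 0% = median of the plate's neutral control wells and 100% = double that signal; a rise in the Bmi1 reporter signal indicates esBAF inhibition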
PglD DTNB: C. jejuni PglD acetyltransferase inhibitors, primary screen, biochemical, DTNB colorimetric, single point; UDP-N-acetylbacillosamine N-acetyltransferase PglD (Campylobacter jejuni); purified PglD enzyme, DTNB colorimetric CoA detection; inhibition, % at 12.5 µM; actives 0.098% (n = 360,000); AID 602405, 2012; in the data active = inhibition above about 16%, passing the limit was not always enough; inconclusive = no clear call, values can overlap the other calls
The depositor's hits bear a star; ! = repeats disagree; [ ] = dose if it differs, or a comment.

Screening O=C(CSc1nnc(-c2ccc(Cl)cc2)o1)N1CCOCC1 returned MITF TRPM1 HTS 97*, Wnt act 10, UUG fidelity -6, miR-122 sensor -8, esBAF inh inconclusive and PglD DTNB -1.
CCOc1ccc(-c2nnc(SCC(=O)N3CCN(c4ccccc4)CC3)o2)cc1 was read as MITF TRPM1 HTS -3, Wnt act -3, UUG fidelity -18, miR-122 sensor -5, esBAF inh -4 and PglD DTNB -1.
`O=C(CSc1nnc(-c2cccc(F)c2)o1)N1CCCC1` gave MITF TRPM1 HTS 45, Wnt act 12, UUG fidelity -17, miR-122 sensor 1, esBAF inh 44* and PglD DTNB 1.
`O=C(CSc1nnc(-c2ccc(O)cc2)o1)N1CCOCC1` gave UUG fidelity -6, miR-122 sensor 1, esBAF inh 24 and PglD DTNB 1.
`C/C=C/c1cnc2c(c1)C(=O)N([C@@H](C)CO)C[C@@H](C)[C@@H](CN(C)C(=O)CN1CCOCC1)O2` gave UUG fidelity -1, miR-122 sensor 15[16.7 µM], esBAF inh -1 and PglD DTNB -2.
`CO[C@H]1CN(C)C(=O)c2cc(NC(=O)Nc3c(C)noc3C)ccc2OC[C@@H](C)N(C)C[C@@H]1C` gave esBAF inh 1 and PglD DTNB 2.
Screening O=C(c1cn(-c2ccc(Cl)c(Cl)c2)nn1)C1CC1 returned MITF TRPM1 HTS -12, Wnt act 5, UUG fidelity -21, miR-122 sensor 5, esBAF inh 10 and PglD DTNB -3.
O=C1CCCCC1C(=O)c1cn(-c2ccc(Cl)c(Cl)c2)nn1 (stereo not drawn) was read as MITF TRPM1 HTS 64, Wnt act 1, UUG fidelity -9, miR-122 sensor 0, esBAF inh 63* and PglD DTNB -3.
Screening O=[N+]([O-])c1nn(-c2ccc3c(c2)OCCO3)n(O)c1=NC1CCCC1 returned Wnt act 33*, UUG fidelity -13, miR-122 sensor 6, esBAF inh 34 and PglD DTNB -3.
Cc1ccc(CN=c2c([N+](=O)[O-])nn(-c3ccc4c(c3)OCCO4)n2O)cc1 was read as MITF TRPM1 HTS -8, UUG fidelity -3, miR-122 sensor 7 and PglD DTNB -8.
For O=[N+]([O-])c1nn(-c2ccc3c(c2)OCCO3)n(O)c1=NCCCO the results were Wnt act 41*, miR-122 sensor -11 and esBAF inh 14.
For N#C/C(=N\Nc1ccc(F)cc1)C(=N)N1CCCCCC1 the results were MITF TRPM1 HTS 75, Wnt act -3, UUG fidelity -17, miR-122 sensor 28, esBAF inh 31 and PglD DTNB -2.
For COc1ccc(N/N=C(\C#N)C(=N)N2CCCCC2)cc1 the results were MITF TRPM1 HTS 57, Wnt act 23 and esBAF inh 65*.
`N#C/C(=N\Nc1ccccc1F)C(=N)N1CCCCC1` gave MITF TRPM1 HTS 85*, Wnt act 28, UUG fidelity -10, miR-122 sensor 14 and PglD DTNB -8.
Screening C/C=C/c1ccc2c(c1)O[C@H](CN(C)C(=O)c1ccncc1)[C@H](C)CN([C@@H](C)CO)S2(=O)=O returned UUG fidelity 3, miR-122 sensor -21[16.7 µM], esBAF inh -1 and PglD DTNB 3.
Screening C[C@H]1C(=O)N(C)CCN1Cc1cn(C)nc1-c1ccc(Oc2ccccc2)cc1 returned MITF TRPM1 HTS -15, Wnt act 1, UUG fidelity -15, miR-122 sensor -5, esBAF inh -5 and PglD DTNB -1.
Screening CCN(CC)C(=O)C1CCN(Cc2cn(C)nc2-c2ccc(Oc3ccccc3)cc2)CC1 returned MITF TRPM1 HTS -11 and Wnt act 54*.
C[C@H](CO)N1C[C@H](C)[C@@H](CN(C)S(=O)(=O)c2ccccc2)Oc2cc(C#Cc3ccncc3)ccc2S1(=O)=O was read as UUG fidelity -11, miR-122 sensor 14[16.7 µM], esBAF inh -6 and PglD DTNB 2.
Screening CCS(=O)(=O)NCC[C@@H]1CC[C@@H](NC(=O)C2CCCC2)[C@H](CO)O1 returned UUG fidelity 0, miR-122 sensor -4[16.7 µM], esBAF inh 0 and PglD DTNB 2.
[O-]/[N+](=C\c1ccc(OC(F)F)cc1)c1ccccc1 was read as UUG fidelity -13, miR-122 sensor 4, esBAF inh 19 and PglD DTNB -3.

Gathered by group: the compounds so far containing a Cl atom.
Screening O=C(CSc1nnc(-c2ccc(Cl)cc2)o1)N1CCOCC1 returned MITF TRPM1 HTS 97*, Wnt act 10, UUG fidelity -6, miR-122 sensor -8, esBAF inh inconclusive and PglD DTNB -1.
Screening O=C(c1cn(-c2ccc(Cl)c(Cl)c2)nn1)C1CC1 returned MITF TRPM1 HTS -12, Wnt act 5, UUG fidelity -21, miR-122 sensor 5, esBAF inh 10 and PglD DTNB -3.
O=C1CCCCC1C(=O)c1cn(-c2ccc(Cl)c(Cl)c2)nn1 (stereo not drawn) was read as MITF TRPM1 HTS 64, Wnt act 1, UUG fidelity -9, miR-122 sensor 0, esBAF inh 63* and PglD DTNB -3.

(listing goes on)
`COc1ccc(/[N+]([O-])=C/c2ccoc2)cc1` gave MITF TRPM1 HTS 106*, Wnt act 41*, UUG fidelity -36, miR-122 sensor -3, esBAF inh 80* and PglD DTNB -1.
`Nc1c2ccccc2nc2ccccc12` gave MITF TRPM1 HTS -83, Wnt act 69*!, UUG fidelity 25, miR-122 sensor -22, esBAF inh 6 and PglD DTNB 0.
[O-]/[N+](=C\C=C\c1ccccc1)c1ccccc1 was read as MITF TRPM1 HTS 94*, Wnt act 29, UUG fidelity -25, miR-122 sensor 9, esBAF inh 34 and PglD DTNB 0.
For O=C(C=Cc1ccccc1)c1ccc([N+](=O)[O-])cc1 the results were MITF TRPM1 HTS 12, Wnt act -2, UUG fidelity 28, esBAF inh 5 and PglD DTNB -3.
`O=[N+]([O-])c1ccc(C=CC=Cc2ccccc2)cc1` gave Wnt act 0, UUG fidelity -23, miR-122 sensor -9, esBAF inh 56* and PglD DTNB -4.
Screening CO[C@H]1CN(C)C(=O)c2ccc(NC(=O)C3CCC3)cc2OC[C@H](C)N(C(=O)NC(C)C)C[C@H]1C returned UUG fidelity -3, miR-122 sensor -1[16.7 µM], esBAF inh 0 and PglD DTNB -2.
Screening COc1ccc(-c2nnn(Cc3ccccc3F)n2)cc1 returned MITF TRPM1 HTS 108*, miR-122 sensor 10 and esBAF inh 64*.
`COc1ccc(-c2nnn(CC(=O)N3CCOCC3)n2)cc1` gave MITF TRPM1 HTS -11, Wnt act -1, UUG fidelity 6, miR-122 sensor 8, esBAF inh -1 and PglD DTNB -7.
Screening O=C(Cn1nnc(-c2ccc(OCc3ccccc3F)cc2)n1)N1CCOCC1 returned MITF TRPM1 HTS 76, UUG fidelity -11, miR-122 sensor 1, esBAF inh 41* and PglD DTNB 2.

Screening data: PubChem, Broad Institute
